In patent publication US20100098654A1, “TREATMENT OF NEUROBLASTOMA WITH MULTI-ARM POLYMERIC CONJUGATES OF 7-ETHYL-10-HYDROXYCAMPTOTHECIN” (priority 2008, published 2010):

What was measured:
[1] = system: human neuroblastoma cells (HTLA-230); test: Pseudometastatic human neuroblastoma (HTLA-230) xenografted mice, survival; type: in vivo
Experimental: Xenografts were established in mice by injecting human neuroblastoma cells (HTLA-230) intravenously at zero time point.
Four-week-old female athymic nude (nu/nu) mice were purchased from Harlan Laboratories (Harlan Italy-S.Pietro al Natisone, UD). Eight mice/group were injected with the human NB cell line, HTLA-230 (3.5×10^6 cells in 200 μl of HEPES-buffered saline) in the tail vein (i.v.) on day 0. The mice were then randomly assigned to each test group (8 mice per group). […] Control group received HEPES-buffered saline. The mice were monitored routinely for weight loss. Survival times were used as the criteria for determining treatment efficacy.

[2] = system: human neuroblastoma cells (GI-LI-N); test: Orthotopic human neuroblastoma (GI-LI-N) xenografted mice; type: in vivo, mouse (human tumor xenograft)
[3] = system: human neuroblastoma cells NXS2; test: NXS2 xenografted mice, survival; type: in vivo; settings: 10 mg/kg i.v. day 3, 5, 7, 9, 11
Experimental: Xenograft tumors were established in immunocompetent A/J mice by injecting […] neuroblastoma cells, NXS2, in the adrenal gland.
The immunocompetent mice were injected with another […] NB cell, NXS2 of 5×10^4 cells or 5×10^5 cells in the left adrenal gland. Tumors were allowed to grow for 2 days and reached the average volume of approximately 200 mm^3. […] Control group received HEPES-buffered saline. Survival time was used as the criteria for determining treatment efficacy.

[4] = system: Human neuroblastoma cells, SH-SY5Y; test: SH-SY5Y xenografted mice, bioluminescence imaging; type: in vivo
Experimental: Human neuroblastoma cells, SH-SY5Y, were injected subcutaneously in the right flank of SCID mice at day 0. The SH-SY5Y cells were human neuroblastoma cells transfected with luciferase.
The luciferase-expressing neuroblastoma cells were visualized by bioluminescence imaging (BLI). Lateral images showing the site of tumor implantation were taken at day 0 (T0), and over time (T12-50). […] The BLI intensity increases as the BLI color grades from blue to red. Less luminescence meant less neuroblastoma cells in the mice. Antitumor effects were evaluated by changes in luminescence.

Substance: ^40k4arm-PEG-Gly(20)-(7-ethyl-10-hydroxycamptothecin) [Compound 9]
- life span compared to the control mice or those treated with CPT-11 ([1]; HTLA-230, 10 mg/kg q2d×5, both 24 and 72 hours after cell injection): significantly increased life span
- survival rate ([1]; HTLA-230 i.v. in nude mice, 10 mg/kg i.v. q2d×5 from 24 or 72 hours, 150 days after the cancer injection): 100%
- survival rate ([2]; GI-LI-N orthotopic (Example 27), 10 mg/kg i.v. day 21, 23, 25, 27, 29, 100 days after the tumor cell implantation): 100%
- life span compared to the control mice or those treated with CPT-11 ([2]; GI-LI-N orthotopic (Example 27), 10 mg/kg q2d×5): significantly increased life span
- life span compared to the control mice or those treated with CPT-11 ([2]; GI-LI-N orthotopic (Example 30), 10 mg/kg day 21, 23, 25, 27, 29): significantly increased life span
- primary tumor growth (tumor size) ([2]; GI-LI-N orthotopic (Examples 27, 28), 10 mg/kg q2d×5): dramatic arrest and regression
- histological examination, neuroblastoma marker (NB84, Ki-67) positive cells ([2]; GI-LI-N orthotopic, tumors removed at day 50): free or nearly free of neuroblastoma marker-positive cells
- mice survived ([3]; A/J mice challenged with 5×10^4 NXS2 tumor cells): 100%
- mice survived ([3]; A/J mice challenged with 5×10^5 NXS2 tumor cells): about 40%
- antitumor effect, neuroblastoma cells quantified based on luminescence ([4]; SH-SY5Y s.c. in SCID mice, 10 mg/kg/dose every other day, 5 doses): Primary tumor regression
- tumor cells by bioluminescence imaging ([4]; in vivo, sc, 10 mg/kg): very few tumor cells
